Drawing on PubChem BioAssay (NCI), this text covers growth for 15 compounds.

SMILES strings stand for the structures. “And” between values parts separate entries of the source, which are not always exact repeats. Identical values can stand only once. The list shows a part of the results, in another mix than the full data.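 Cell lines were cultured in 96-well plates, exposed to a single compound concentration, and assessed for percent growth 48 hours later.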 Some salts or complexes appear as unconnected parts, following the source record. The source made the active and inactive calls. The calls were made as follows: active = growth percent below 10; inactive = the rest.

The subject of this test is MDA-MB-468 breast. Kind of test: NCI-60 one-dose screen, 48 h (100 = growth as untreated, 0 = no growth, -100 = all killed). Particulars: 10 µM.
`CCOC(=O)Nc1c([N+](=O)[O-])cc([N+](=O)[O-])cc1[N+](=O)[O-]`: the growth is inactive: 61.5%.

On to `Cc1c([N+](=O)[O-])cc([N+](=O)[O-])c(Br)c1[N+](=O)[O-]`, for which the growth is active: -67.8%.

Regarding `O=C1N([N+](=O)[O-])CCN1[N+](=O)[O-]`, the growth was inactive: 101%.

Consider `NN/C(N)=N/[N+](=O)[O-]`, for which the growth was inactive: 106%.

Take `CN(CCO)CCCl.O=[N+]([O-])c1cc([N+](=O)[O-])c(O)c([N+](=O)[O-])c1`: the growth is inactive: 97.8%.

Consider `CN/C(N)=N/[N+](=O)[O-]`, for which the growth was inactive: 103%.

With `CC[N+]([O-])(CC)Cc1ccccc1.O=[N+]([O-])c1cc([N+](=O)[O-])c(S(=O)(=O)O)c([N+](=O)[O-])c1`, the growth was inactive: 93%.

As for `n1nc(-c2nn[nH]n2)n[nH]1`, the growth was inactive: 90%.

In the case of `CCN(C)CC.O=[N+]([O-])c1cc([N+](=O)[O-])c(O)c([N+](=O)[O-])c1`, the growth is inactive: 109%.

Regarding `O=[N+]([O-])c1cc([N+](=O)[O-])c(O)c([N+](=O)[O-])c1.c1ccc([I+]c2ccccc2)cc1`, the growth was inactive: 39.1%.

As for `OCCSCCO`, the growth was inactive: 104%.

With `CCCOP(=S)(Cl)OCCC`, the growth is inactive: 113%.

On to `CCOP(=O)(CC)OCC`, for which the growth is inactive: 97.5%.

On to `CCCCCCCOP(=O)(CC)OCCCCCCC`, for which the growth is inactive: 94.8%.

In the case of `CN(C)CCS`, the growth was inactive: 97.9% and inactive: 97.4%.
